Experimental findings from the supplement of paper PMC11537057 are described below.

Most of the hits are listed elsewhere, so they are rarer here than in the full data.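 Rule for the calls: active = infection cut by 80% or more with cell growth above 90% in both runs; inactive = the rest.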

This assay relates to HSV-1 strain 17 YFP-ICP4 in A549. Briefly: HSV-1 infection relative to DMSO (ICP4-YFP per H2B-RFP signal); higher = more viral infection (less antiviral activity), active = hit call of the paper. Conditions: 10 µM; 48 h; MOI: 0.1. On the procedure: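 Selleck FDA-approved library (L1300) screened in duplicate at 10 µM on A549 H2B-mRuby cells in 384-well plates, infected with HSV-1 strain 17 YFP-ICP4 at MOI 0.1 one hour before drug addition. Imaged after 2 days at 37°C. Cell growth (H2B-RFP) and infection (ICP4-YFP) are expressed as % of DMSO-treated wells. Hits: growth >90% and infection <20% of DMSO.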
Take `CC[C@H](C)[C@H](NC(=O)[C@@H]1CCCN1C(=O)CNC(=O)[C@H](Cc1ccccc1)NC(=O)[C@H](CC(N)=O)NC(=O)[C@H](CC(N)=O)NC(=O)[C@H](CO)NC(=O)[C@H](CO)NC(=O)[C@H](Cc1c[nH]cn1)NC(=O)[C@@H](NC(=O)[C@H](CC(C)C)NC(=O)[C@H](Cc1ccccc1)NC(=O)[C@H](CC(N)=O)NC(=O)[C@H](C)NC(=O)[C@H](CC(C)C)NC(=O)[C@H](CCCNC(=N)N)NC(=O)[C@H](CCC(N)=O)NC(=O)[C@@H](NC(=O)[C@H](C)NC(=O)[C@@H]1CSSC[C@H](NC(=O)[C@@H](N)CCCCN)C(=O)N[C@@H](CC(N)=O)C(=O)N[C@@H]([C@@H](C)O)C(=O)N[C@@H](C)C(=O)N[C@@H]([C@@H](C)O)C(=O)N1)[C@@H](C)O)C(C)C)C(=O)N[C@@H](CC(C)C)C(=O)N1CCC[C@H]1C(=O)N1CCC[C@H]1C(=O)N[C@H](C(=O)N[C@@H](CC(N)=O)C(=O)N[C@H](C(=O)NCC(=O)N[C@@H](CO)C(=O)N[C@@H](CC(N)=O)C(=O)N[C@H](C(=O)N[C@@H](Cc1ccc(O)cc1)C(N)=O)[C@@H](C)O)C(C)C)[C@@H](C)O` [Pramlintide Acetate]: the HSV-1 infection is inactive: 102%.
